Data set [1] is described as follows: Necropsy observations and organ weights, day 15. The format is in vivo, Sprague-Dawley rats. The settings on record: Group E, 0.75 mg/kg, males, individual animals, tartrate. Here is the method: Body weight and food consumption was measured daily for 14 days. On day 15, urine was collected on all surviving animals. The animals were euthanized and bled via cardiac puncture, and blood was collected for analysis. Tissues were collected, weighed, evaluated for gross abnormalities, and stored in 10% neutral-buffered formalin.
(§1) On day 15, urine was collected on all surviving animals for urinalysis. The animals were euthanized and bled via cardiac puncture. Blood was collected for hematology, clinical chemistry, and coagulation analysis. Tissues were collected, weighed, and stored in 10% neutral-buffered formalin for possible future analysis.

A short description of data set [2]: Coagulation parameters (aPTT, PT), day 15. In kind it is in vivo, Sprague-Dawley rats.
Description: as §1
Individual values for the coagulation parameters activated partial thromboplastin (aPTT) and prothrombin times (PT) for each animal are listed in Table 34 (normal ranges, Table 30). These are summarized in terms of descriptive statistics in Table 25.

Several values for one entry are separate records, joined by “and”; a condition that tells them apart may be missing. Equal entries are not always repeated.

With `CN1CCCC1c1cccnc1.O=C(O)C(O)C(O)C(=O)O` (single isomer, unassigned; (-)) [Nicotine, (−) Nicotine hydrogen tartrate], in data set [1], the “Tissue Collection Weights: Liver” value was determined as 14.20 g. Besides, the “P[…]” value in data set [2] (male, 0.75 mg/kg, group mean) was 13.6 s; in data set [2] (nicotine 0.75 mg/kg, female rats, individual animals, tartrate), 13.9 s and 14.2 s; in data set [2] (nicotine 0.75 mg/kg, male rats, individual animals, tartrate), 13.8 s and 13.2 s and 14.2 s and 13 s.
